“And” between values parts separate entries of the source, which are not always exact repeats. Identical values can stand only once.
Target: T1, aldose reductase enzyme obtained from rat lens (Rattus norvegicus, UniProt P07943)
T1 construct: partially purified aldose reductase enzyme obtained from rat lens; from tissue; host or cells: rat lens
Test: Inhibition of partially purified aldose reductase from rat lens
Format: biochemical
Conditions: IC50 (concentration of drug that inhibits 50% of the enzyme activity)
Source text: In every case the substrate employed was partially purified aldose reductase enzyme obtained from rat lens or human placenta.

IC50: 270 nM and 610 nM
Compound: O=C1NC(=O)C2(CCOc3ccc(F)cc32)N1 (single isomer, unassigned) [SARGES**]

Source: patent publication US4464385A, “Treatment of diabetic complications with hydantoins” (Alcon Laboratories, Inc., priority 1982, dated 1984)
